In US12172993B2 (priority 2018, dated 2024):

Experiments:
Aurora B = Aurora B (Homo sapiens (Human), UniProt Q96GD4); experiment: biochemical; settings: read-out: Residual activity (%) at 1 μM
in vivo = settings: male, CD1, mouse, plasma, iv, 1 mg/kg
SRC (GST-HIS-tag) = SRC (GST-HIS-tag) (Homo sapiens (Human), UniProt P12931); assay type: biochemical
[1] = tested on: MC38 colorectal carcinoma cells; settings: 100 mg/kg once daily (QD) p.o.

In the case of Cc1nc(Nc2ncc(C(=O)Nc3c(C)cccc3Cl)s2)cc(N2CCN(CCO)CC2)n1 [Compound A8, N-(2-chloro-6-methylphenyl)-2-((6-(4-(2-hydroxyethyl)piperazin-1-yl)-2-methylpyrimidin-4-yl)amino)thiazole-5-carboxamide, reference compound], the remaining activity at 1 µM (Aurora B) is reported as 90% and the AUC(0-inf) (in vivo) is reported as 1.06 µM·h.

In the case of Cc1nc(Nc2ncc(C(=O)Nc3c(Br)ccnc3C)s2)cc(N2CCN(CCO)CC2)n1 [Compound C3, N-(4-bromo-2-methylpyridin-3-yl)-2-((6-(4-(2-hydroxyethyl)piperazin-1-yl)-2-methylpyrimidin-4-yl)amino)thiazole-5-carboxarmide], the IC50 (SRC (GST-HIS-tag)) is reported as < 2 nM.

For Cc1nc(Nc2ncc(C(=O)Nc3c(C)csc3Cl)s2)cc(N2CCN(CCO)CC2)n1 [Compound C7, N-(2-chloro-4-methylthiophen-3-yl)-2-((6-(4-(2-hydroxyethyl)piperazin-1-yl)-2-methylpyrimidin-4-yl)amino)thiazole-5-carboxamide], the “tumour growth inhibition vs vehicle control” value [1] was 29% and the IC50 (SRC (GST-HIS-tag)) was < 1.5 nM.
